Values of other authors, collected in patent US20060281813A1, “Methods of treating hyperproliferative cell disorders” (priority 2003, published 2006).

Tested on: breast cancer
Conditions: cited from earlier work

In the case of “Herceptin: a targeted antibody to Her2/neu”, the response rate (in combination with chemotherapy) is listed as 30-50% and the response rate (single agent, breast cancer) is listed as 16%.

Read-outs that look alike come from different tables or passages of the source.
